{
  "sequences": {"note": "Chains of the proteins cited; added tags and fusions are not shown. Lines headed by an entry give the natural chain unless they say otherwise; changes in a name come on top.", "UniProt Q99572": "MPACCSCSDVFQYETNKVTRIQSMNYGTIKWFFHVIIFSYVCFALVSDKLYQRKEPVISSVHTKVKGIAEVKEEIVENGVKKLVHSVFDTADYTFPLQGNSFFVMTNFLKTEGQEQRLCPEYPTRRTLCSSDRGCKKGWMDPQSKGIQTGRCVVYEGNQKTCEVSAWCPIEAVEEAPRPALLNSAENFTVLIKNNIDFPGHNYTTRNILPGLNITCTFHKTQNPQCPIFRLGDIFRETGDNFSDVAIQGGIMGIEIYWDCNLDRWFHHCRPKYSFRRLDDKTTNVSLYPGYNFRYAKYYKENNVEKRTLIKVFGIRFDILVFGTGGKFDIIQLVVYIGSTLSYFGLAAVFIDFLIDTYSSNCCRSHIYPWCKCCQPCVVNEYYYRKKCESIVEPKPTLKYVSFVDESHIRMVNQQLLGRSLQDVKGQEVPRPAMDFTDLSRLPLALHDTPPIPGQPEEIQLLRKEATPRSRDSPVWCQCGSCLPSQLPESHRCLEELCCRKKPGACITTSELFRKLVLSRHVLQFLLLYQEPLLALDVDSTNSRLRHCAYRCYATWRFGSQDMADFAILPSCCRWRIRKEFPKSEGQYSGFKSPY"},
  "source": "ChEMBL document CHEMBL5223134",
  "about": "“Pipeline Impact of Radiolabeled Compounds in Drug Discovery and Development” (ACS Med Chem Lett, 2022)",
  "key": {"P2X purinoceptor 7 [1]": {"target": "P2X purinoceptor 7 (Homo sapiens, UniProt Q99572)", "experiment": "Antagonist activity against human P2X7R expressed in human 1321N1 cell membrane incubated for 1 hrs by radioligand binding assay", "type": "cell membranes"}, "P2X purinoceptor 7 [2]": {"target": "T1, P2X purinoceptor 7 (Mus musculus, UniProt Q9Z1M0)", "T1 sequence (Q9Z1M0 whole entry)": "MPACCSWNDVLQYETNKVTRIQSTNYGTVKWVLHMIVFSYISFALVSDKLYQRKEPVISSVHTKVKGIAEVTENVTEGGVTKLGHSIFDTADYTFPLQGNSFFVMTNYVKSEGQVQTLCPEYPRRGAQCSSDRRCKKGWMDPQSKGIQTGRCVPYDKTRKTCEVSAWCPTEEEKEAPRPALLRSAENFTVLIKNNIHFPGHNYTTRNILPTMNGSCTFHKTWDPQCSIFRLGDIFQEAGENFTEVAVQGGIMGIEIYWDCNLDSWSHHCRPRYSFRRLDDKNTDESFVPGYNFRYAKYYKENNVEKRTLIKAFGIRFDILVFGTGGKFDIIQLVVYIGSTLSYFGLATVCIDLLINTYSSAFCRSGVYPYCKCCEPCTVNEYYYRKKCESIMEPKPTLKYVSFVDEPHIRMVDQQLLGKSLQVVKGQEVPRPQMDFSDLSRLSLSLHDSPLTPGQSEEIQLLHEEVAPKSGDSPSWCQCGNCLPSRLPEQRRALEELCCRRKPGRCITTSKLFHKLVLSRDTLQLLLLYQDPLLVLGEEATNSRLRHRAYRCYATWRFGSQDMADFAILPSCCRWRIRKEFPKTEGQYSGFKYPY", "experiment": "Antagonist activity against mouse P2X7R expressed in human 1321N1 cell membrane incubated for 1 hrs by radioligand binding assay", "type": "cell membranes"}},
  "data": [
    {"molecule": "[3H]c1ccc([C@H](C)N/C(=N/C#N)Nc2cccc3ncccc23)cc1", "values": [
      {"measurement": "IC50", "setting": "P2X purinoceptor 7 [1]", "value": 0.011, "unit": "µM"},
      {"measurement": "IC50", "setting": "P2X purinoceptor 7 [2]", "value": 0.009, "unit": "µM"}
    ]}
  ]
}
